This is an account of results in patent publication EP2773641B1, “BIARYL ETHER SULFONAMIDES AND THEIR USE AS THERAPEUTIC AGENTS” (Xenon Pharmaceuticals Inc., priority 2011, dated 2013).

Protein sequences, listed by entry. Tags and fused reporters are not part of them. Residues count along the entry.
UniProt Q15858, 1-1977 isoform Q15858-3: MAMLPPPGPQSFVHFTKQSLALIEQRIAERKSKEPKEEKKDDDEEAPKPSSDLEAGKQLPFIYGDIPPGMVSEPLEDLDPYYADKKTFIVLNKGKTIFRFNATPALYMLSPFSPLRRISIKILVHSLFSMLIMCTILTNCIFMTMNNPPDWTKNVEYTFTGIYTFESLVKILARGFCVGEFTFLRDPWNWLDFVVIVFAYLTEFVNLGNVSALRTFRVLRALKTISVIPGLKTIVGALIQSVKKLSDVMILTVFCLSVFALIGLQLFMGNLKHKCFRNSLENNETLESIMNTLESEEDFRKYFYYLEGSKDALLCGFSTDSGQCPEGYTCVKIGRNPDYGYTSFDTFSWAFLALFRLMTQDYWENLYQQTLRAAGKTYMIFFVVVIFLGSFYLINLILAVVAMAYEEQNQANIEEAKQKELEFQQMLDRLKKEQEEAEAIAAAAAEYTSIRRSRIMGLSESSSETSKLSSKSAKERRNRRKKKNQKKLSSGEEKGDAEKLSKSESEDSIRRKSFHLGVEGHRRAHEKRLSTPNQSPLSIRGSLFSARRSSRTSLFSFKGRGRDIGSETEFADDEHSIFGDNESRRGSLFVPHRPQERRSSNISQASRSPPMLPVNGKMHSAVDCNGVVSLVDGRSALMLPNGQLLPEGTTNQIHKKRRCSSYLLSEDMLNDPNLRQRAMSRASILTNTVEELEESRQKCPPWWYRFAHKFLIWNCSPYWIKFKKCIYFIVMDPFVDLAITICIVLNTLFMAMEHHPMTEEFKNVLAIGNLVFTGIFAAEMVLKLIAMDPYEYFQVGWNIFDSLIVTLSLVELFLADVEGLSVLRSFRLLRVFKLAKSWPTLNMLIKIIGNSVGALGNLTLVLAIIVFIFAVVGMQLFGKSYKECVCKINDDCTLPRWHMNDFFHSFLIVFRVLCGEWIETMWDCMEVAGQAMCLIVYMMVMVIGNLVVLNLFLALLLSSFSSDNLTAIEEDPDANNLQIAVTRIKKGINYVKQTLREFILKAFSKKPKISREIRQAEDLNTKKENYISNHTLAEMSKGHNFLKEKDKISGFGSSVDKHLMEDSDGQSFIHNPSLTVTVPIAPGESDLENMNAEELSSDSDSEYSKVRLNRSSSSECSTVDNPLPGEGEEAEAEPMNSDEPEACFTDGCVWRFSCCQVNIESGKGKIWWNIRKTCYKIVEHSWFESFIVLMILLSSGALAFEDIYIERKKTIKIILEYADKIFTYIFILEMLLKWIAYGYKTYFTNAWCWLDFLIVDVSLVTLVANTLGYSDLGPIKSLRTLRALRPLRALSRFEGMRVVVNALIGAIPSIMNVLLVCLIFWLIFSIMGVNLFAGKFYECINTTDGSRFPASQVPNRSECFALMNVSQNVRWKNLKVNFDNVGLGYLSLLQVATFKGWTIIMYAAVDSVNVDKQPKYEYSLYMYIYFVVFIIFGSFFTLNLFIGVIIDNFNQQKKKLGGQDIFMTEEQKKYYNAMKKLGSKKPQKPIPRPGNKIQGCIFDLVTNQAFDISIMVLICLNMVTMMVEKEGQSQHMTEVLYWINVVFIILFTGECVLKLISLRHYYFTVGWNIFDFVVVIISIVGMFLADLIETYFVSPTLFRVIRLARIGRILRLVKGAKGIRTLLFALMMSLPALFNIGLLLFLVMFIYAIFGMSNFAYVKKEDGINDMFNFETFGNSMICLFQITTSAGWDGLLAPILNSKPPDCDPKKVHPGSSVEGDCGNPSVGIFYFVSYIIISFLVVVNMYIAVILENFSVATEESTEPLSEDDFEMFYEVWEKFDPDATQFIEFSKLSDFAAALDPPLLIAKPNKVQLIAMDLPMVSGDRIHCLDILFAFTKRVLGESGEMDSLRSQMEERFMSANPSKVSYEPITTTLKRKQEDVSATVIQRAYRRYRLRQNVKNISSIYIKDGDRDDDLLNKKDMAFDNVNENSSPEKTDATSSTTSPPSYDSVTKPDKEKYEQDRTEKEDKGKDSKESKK

Structures are written as SMILES. Where two headings read alike, the source gives them in different places. A value given as a limit tells only on which side of the number the result lay.

The assay deals with T1, Nav1.7 (Homo sapiens, UniProt Q15858).
T1 construct: permanently transfected with an expression vector containing the full-length cDNA coding for the desired human sodium channel α-subunit; expressed in transfected cells
Nature of the assay: Patch voltage clamp electrophysiology assay, block of the inactivated state of Nav1.7. Type of assay: cell-based. The following applies: affinity for the inactivated state, HEK-293 cells stably expressing human Nav1.7 with β1 subunit, held at -60 mV. The method, then:
The following patch voltage clamp electrophysiology studies were performed on representative compounds of the invention using human embryonic kidney cells (HEK), permanently transfected with an expression vector containing the full-length cDNA coding for the desired human sodium channel α-subunit, grown in culture media containing 10% FBS, 1% PSG, and 0.5 mg/mL G418 at 37 °C with 5% CO2. […] Nav1.7 and Nav1.5 cDNAs (NM_002977 and AC137587; SCN5A, respectively) were stably expressed in HEK-293 cells. The β1 subunit was coexpressed only in the Nav1.7 cell line.
Sodium currents were measured using the patch clamp technique in the whole-cell configuration using either a PatchXpress automated voltage clamp or manually using an Axopatch 200B (Axon Instruments) or Model 2400 (A-M systems) amplifier. […] The pipette was filled with a solution comprised of: 5 mM NaCl, 10 mM CsCl, 120 mM CsF, 0.1 mM CaCl2, 2 mM MgCl2, 10 mM HEPES, 10 mM EGTA; and adjusted to pH 7.2 with CsOH. […] Control sodium currents were measured in 0.5% DMSO. […]
The membrane potential was maintained at a voltage where inactivation of the channel is complete (which was -60 mV for both Nav1.7 and Nav1.5). The voltage is then stepped back to a very negative (Vhold = -150mV) voltage for 20 ms and then a test pulse is applied to quantify the compound block. […]

For `Nc1nc2cc(-c3cc(Cl)ccc3Oc3cc(F)c(S(=O)(=O)Nc4ncns4)cc3F)ccc2o1` [Example 56, 4-(2-(2-aminobenzo[d]oxazol-5-yl)-4-chlorophenoxy)-2,5-difluoro-N-(1,2,4-thiadiazol-5-yl)benzenesulfonamide], the IC50 (IC50 class, read-out: Nav1.7) was under 100 nM and the IC50 (read-out: Nav1.7 IC50) stood at 1.4 nM.
